These results are taken from US6730675B2 (AstraZeneca AB, priority 1999, dated 2004).

The target in this assay is T1, NMDA receptor glycine site (Rattus norvegicus, UniProt P35439).
T1 construct: The rat brain membranes used in the experiments were obtained from Analytical Biological Services Inc; tissue Analytical Biological Services Inc; host or cells: rat brain membranes (cerebral cortex and hippocampus, male Sprague Dawley rats)
In words: Test A: Inhibition of binding of [3H]-MDL105,519 to brain membranes. As to conditions: displacement of 1.2 nM [3H]MDL105,519, brain membranes. The source says:
Test A: Inhibition of Binding of [^3H]-MDL105,519:
Binding of compounds to the NMDA receptor glycine site may be assessed by measuring the ability of test compounds to inhibit the binding of tritiated MDL105,519 to brain membranes bearing the receptor.
Briefly, fresh brain tissue including cerebral cortex and hippocampus from male Sprague Dawley rats was homogenized in 0.32 M sucrose and centrifuged at low speed to separate cellular membranes from other cellular components. The membranes were then washed 3 times using deionized water, followed by treatment with 0.04% Triton X-100. Finally, membranes were washed six times in 50 mM Tris citrate buffer, pH 7.4, and frozen at −80° C. until use.
[^3H]MDL105,519 (72 Ci/mmol) was purchased from Amersham. Cold MDL105,519 was purchased from Sigma/RBI. Binding assays were performed substantially in accordance with the protocol of B. M. Baron et al., J. Phannacol. […] Non specific binding was determined by using 100 μM of unlabeled MDL105,519. […] The plates were dried overnight at room temperature and bound radioactivity was measured on a Packard TopCount after the addition of 45 μL per well of the MICROSCINT O. […]
Data analysis: Data was analyzed using a Microsoft Excel spreadsheet and GraphPad Prizm software and potency of compounds is expressed as the Ki (nM).

The Ki is the dissociation constant of the complex between target and ligand, obtained from inhibition or displacement. Regarding `Cc1noc(C)c1Cn1nc(O)c2[nH]c3cc(Cl)ccc3c(=O)c2c1=O` [Ex. 5], the affinity corresponds to a Ki of 39 nM.
